Values of other authors in patent US6225288A, “Gamma-ketoacid dipeptides as inhibitors of caspase-3” (Merk Frosst Canada & Co., priority 2000, dated 2001).

How the values were obtained:
caspase-1 = biological target: T1, caspase-1 (Homo sapiens, UniProt P29466)
T1 sequence (P29466 120-297 limits assumed): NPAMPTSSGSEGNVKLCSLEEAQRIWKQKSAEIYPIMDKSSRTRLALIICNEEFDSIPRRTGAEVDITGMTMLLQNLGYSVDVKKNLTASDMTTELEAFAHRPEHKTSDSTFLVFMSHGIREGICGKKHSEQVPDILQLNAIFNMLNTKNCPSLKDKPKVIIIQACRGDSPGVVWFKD
T1 sequence (P29466 317-404 limits assumed): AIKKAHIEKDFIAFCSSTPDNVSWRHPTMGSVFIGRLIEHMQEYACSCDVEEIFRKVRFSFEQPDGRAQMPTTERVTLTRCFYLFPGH

caspase-3 = biological target: T2, caspase-3 (Homo sapiens, UniProt P42574)
T2 sequence (P42574 29-175 limits assumed): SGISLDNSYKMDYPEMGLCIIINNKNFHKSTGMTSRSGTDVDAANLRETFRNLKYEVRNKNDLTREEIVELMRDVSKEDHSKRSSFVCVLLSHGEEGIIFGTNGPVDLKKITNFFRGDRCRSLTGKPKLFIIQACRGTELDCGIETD
T2 sequence (P42574 176-277 limits assumed): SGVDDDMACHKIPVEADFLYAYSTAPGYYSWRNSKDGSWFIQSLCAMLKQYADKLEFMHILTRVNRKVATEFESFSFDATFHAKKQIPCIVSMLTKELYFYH

Ac-DEVD-CHO
inhibition of caspase-1 (in words) (caspase-1): weaker but reasonable inhibitor of caspase-1 | Ki (caspase-3): < 1 nM
